The text below walks through data of ChEMBL document CHEMBL4354843, “Structure-Based Design of a Potent and Selective Covalent Inhibitor for SRC Kinase That Targets a P-Loop Cysteine” (J Med Chem, 2020).

Chains of the proteins cited; added tags and fusions are not shown.
UniProt P07947, whole entry, looked up: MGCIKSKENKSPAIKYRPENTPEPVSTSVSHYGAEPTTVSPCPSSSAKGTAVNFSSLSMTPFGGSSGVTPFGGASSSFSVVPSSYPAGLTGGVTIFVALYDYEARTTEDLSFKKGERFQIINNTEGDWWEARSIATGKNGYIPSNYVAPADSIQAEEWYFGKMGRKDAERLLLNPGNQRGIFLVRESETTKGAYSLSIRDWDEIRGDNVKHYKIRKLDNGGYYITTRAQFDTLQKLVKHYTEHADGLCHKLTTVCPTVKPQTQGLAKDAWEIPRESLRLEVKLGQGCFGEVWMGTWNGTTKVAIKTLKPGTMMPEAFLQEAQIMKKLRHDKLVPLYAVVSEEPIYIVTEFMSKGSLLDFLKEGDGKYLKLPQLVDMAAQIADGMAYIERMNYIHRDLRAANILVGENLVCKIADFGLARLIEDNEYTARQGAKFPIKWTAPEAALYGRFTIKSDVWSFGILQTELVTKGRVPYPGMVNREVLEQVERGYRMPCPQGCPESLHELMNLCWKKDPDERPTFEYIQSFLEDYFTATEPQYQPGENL

The target of the experiment is Tyrosine-protein kinase Yes (Homo sapiens) (UniProt P07947). The experiment is described as follows: Binding affinity to wild-type human partial length YES (T257 to L543 residues) expressed in bacterial expression system assessed as residual binding level at 1 uM by Kinomescan method relative to control.

Regarding `C=CC(=O)Nc1ccccc1Nc1nc(Nc2ccc(N3CCN(C)CC3)cc2)ncc1C(=O)Nc1c(C)cccc1Cl`, the Activity amounted to 0.55%.
